## scFv variants of Ab-95 (light chain) against a SARS-CoV-2 spike peptide

Reference: Engelhart et al. 2022, doi:10.1038/s41597-022-01779-4. File: FLAb, binding data.

Antigen: PDVDLGDISGINAS, a 14-residue peptide of the SARS-CoV-2 spike HR2 region.

The variants keep the heavy chain, the linker and the frameworks of Ab-95 (scFv order VH, three GGGGS repeats, VL).
VH: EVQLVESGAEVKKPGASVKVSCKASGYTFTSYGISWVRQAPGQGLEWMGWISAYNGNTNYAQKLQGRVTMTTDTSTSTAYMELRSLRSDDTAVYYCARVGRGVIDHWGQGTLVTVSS
VL: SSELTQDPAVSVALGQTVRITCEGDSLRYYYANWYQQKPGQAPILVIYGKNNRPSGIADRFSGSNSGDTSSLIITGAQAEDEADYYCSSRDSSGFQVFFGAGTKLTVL

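The parent was found by panning a naive human phage display library on the peptide. Library AAYL52 holds single substitutions and randomly drawn double and triple substitutions in the CDRs. AlphaSeq pools MATa yeast showing the antibodies with MATalpha yeast showing the peptide. The frequency of each diploid, read from paired DNA barcodes, reflects how well the two displayed proteins bind. Read counts were normalised to the haploid input and turned into Kd by a linear fit to BCL2-family pairs of known affinity, for each replicate. Each pool was mated in three replicate cultures.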

Changes read parent residue, position, new residue, counted from the first residue of the VL shown. Kd is apparent (estimated from mating counts) and averaged on the log scale over replicates with a signal. Smaller is tighter. Where no diploid with the target was found in any replicate, the entry reads "not detected": below detection, most likely a poor binder, though not proof of it. Entries are sorted by rising average, undetected variants last. As a blank, each scFv also met three strains without target: over library AAYL52, 28% of these pairings were detected, typically at 8.2 µM and seldom below 800 nM.

| changes | Kd | replicates with signal |
|---|---|---|
| Y30G+F98L | 6.4 nM | 3 of 3 |
| Y30N+R53M+F98I | 20 nM | 3 of 3 |
| L27G+Y29C+S92K | 46 nM | 3 of 3 |
| Y29V+N51M+N52Q | 59 nM | 3 of 3 |
| N52E+V97S+F98Y | 65 nM | 3 of 3 |
| R28Q+Y31M+S55V | 160 nM | 3 of 3 |
| Y29E+S88H+Q96P | 170 nM | 3 of 3 |
| Y31T+S93H+F95A | 170 nM | 3 of 3 |
| Y30R+Y31C+R90Y | 210 nM | 3 of 3 |
| Y30I+G49E+P54S | 220 nM | 3 of 3 |
| Y29M+N52G+S88M | 350 nM | 3 of 3 |
| S89G+V97Q+F98M | 370 nM | 3 of 3 |
| D25P+R28S+Q96R | 420 nM | 3 of 3 |
| A32S+N52Q+S92T | 530 nM | 3 of 3 |
| D25I+G49H+Q96W | 580 nM | 2 of 3 |
| D25G+K50Q+F98T | 660 nM | 3 of 3 |
| S92W+F95L | 710 nM | 1 of 3 |
| E23W+R28H+Y30P | 810 nM | 3 of 3 |
| D91T+S92A+Q96L | 820 nM | 3 of 3 |
| L27I+Q96E | 910 nM | 3 of 3 |
| Q96I+V97P | 940 nM | 3 of 3 |
| R28T+G94E+F95I | 1.2 µM | 2 of 3 |
| Y30G+G49V+S92W | 1.2 µM | 3 of 3 |
| Y31H+P54A+G94M | 1.4 µM | 3 of 3 |
| G24Y+N33D+N51D | 1.5 µM | 1 of 3 |
| A32K+K50F+N52R | 1.5 µM | 3 of 3 |
| E23R+K50C+N52S | 1.5 µM | 3 of 3 |
| Y30W+K50Y+S88A | 1.6 µM | 3 of 3 |
| N51M+S89Q+V97L | 1.8 µM | 2 of 3 |
| Y31R+R53L+V97Q | 2.0 µM | 1 of 3 |
| N52P+S88W+S93V | 2.1 µM | 1 of 3 |
| R28L+G49Y+S92H | 2.5 µM | 2 of 3 |
| L27R+S89E+V97Y | 3.2 µM | 1 of 3 |
| E23W+Y29P+R53E | 3.2 µM | 1 of 3 |
| Y29F+A32Q+N52R | 4.3 µM | 3 of 3 |
| L27G+S89Y | 5.4 µM | 3 of 3 |
| N52A+R53E+S89C | 6.3 µM | 3 of 3 |
| S26F+N52Y+S92T | 6.9 µM | 3 of 3 |
| K50M+R90Q+V97I | 7.1 µM | 2 of 3 |
| R53A+S92Y+F95P | 7.2 µM | 2 of 3 |

Further variants, results first:

| Kd | replicates with signal | changes |
|---|---|---|
| 7.3 µM | 1 of 3 | P54V+S88K+S93T |
| 7.3 µM | 3 of 3 | Y30H+N33A+V97M |
| 7.5 µM | 2 of 3 | L27S+G49F+D91Y |
| 7.5 µM | 3 of 3 | N51Y+S89Q+D91A |
| 7.8 µM | 1 of 3 | S26D+G49L+N52D |
| 7.9 µM | 3 of 3 | L27S+N52H+R90S |
| 9.9 µM | 2 of 3 | N51R+S89V+S92E |
| 13 µM | 2 of 3 | E23T+R90S+D91C |
| 14 µM | 1 of 3 | S26D+K50V+R53L |
| 15 µM | 3 of 3 | S89G+V97C+F98Q |
| 15 µM | 3 of 3 | S26H+S89Y+S93D |
| 16 µM | 1 of 3 | S26E+A32T+N51V |
| 18 µM | 2 of 3 | Y29L+Y31C+R90G |
| 19 µM | 2 of 3 | S26H+R53T+F95D |
| 19 µM | 2 of 3 | L27K+S92A+Q96P |
| 24 µM | 1 of 3 | R28M+N33H+N52R |
| 30 µM | 1 of 3 | S26N+D91Y+F95Y |
| 33 µM | 1 of 3 | Y30V+R53E+F95G |
| 37 µM | 2 of 3 | Y31T+N51F+S93P |
| 50 µM | 1 of 3 | A32H+P54T+S93Y |
| 52 µM | 2 of 3 | A32L+N33C+V97L |
| 57 µM | 2 of 3 | N51R+S88F+R90F |
| 61 µM | 2 of 3 | A32S+R53N+D91Y |
| 62 µM | 1 of 3 | D25H+G49P+S93Q |
| 120 µM | 2 of 3 | G49M+V97R |
| 120 µM | 2 of 3 | Y29I+N52G+R53I |
| 130 µM | 1 of 3 | Y30V+G49C+R53P |
| 480 µM | 1 of 3 | S26G+L27G+Q96G |
| not detected | 0 of 3 | L27A+N52R+S89N |
| not detected | 0 of 3 | N52T+S89Q+F98G |
| not detected | 0 of 3 | Y30T+N52K+G94Q |
| not detected | 0 of 3 | L27K+N33G+R90M |
| not detected | 0 of 3 | G49E+S89P+D91G |
| not detected | 0 of 3 | G24L+D91W+S92D |
| not detected | 0 of 3 | P54H+G94C+F98S |
| not detected | 0 of 3 | G24R+Y30K+V97S |
| not detected | 0 of 3 | G24A+K50A+F98Q |
| not detected | 0 of 3 | A32K+S92C |
| not detected | 0 of 3 | G49T+N51A+S55C |
| not detected | 0 of 3 | E23T+S92H+G94W |

13 of these entries, quoted again:

{"changes": "E23W+R28H+Y30P", "Kd": "810 nM", "replicates with signal": "3 of 3"}
{"changes": "N51R+S88F+R90F", "Kd": "57 µM", "replicates with signal": "2 of 3"}
{"changes": "P54V+S88K+S93T", "Kd": "7.3 µM", "replicates with signal": "1 of 3"}
{"changes": "Y30V+R53E+F95G", "Kd": "33 µM", "replicates with signal": "1 of 3"}
{"changes": "G49M+V97R", "Kd": "120 µM", "replicates with signal": "2 of 3"}
{"changes": "L27S+G49F+D91Y", "Kd": "7.5 µM", "replicates with signal": "2 of 3"}
{"changes": "N52T+S89Q+F98G", "Kd": "not detected", "replicates with signal": "0 of 3"}
{"changes": "L27I+Q96E", "Kd": "910 nM", "replicates with signal": "3 of 3"}
{"changes": "Y30T+N52K+G94Q", "Kd": "not detected", "replicates with signal": "0 of 3"}
{"changes": "L27G+S89Y", "Kd": "5.4 µM", "replicates with signal": "3 of 3"}
{"changes": "A32L+N33C+V97L", "Kd": "52 µM", "replicates with signal": "2 of 3"}
{"changes": "A32S+N52Q+S92T", "Kd": "530 nM", "replicates with signal": "3 of 3"}
{"changes": "R28M+N33H+N52R", "Kd": "24 µM", "replicates with signal": "1 of 3"}